Data on one compound can be found in BindingDB's records for 20638843.

Chains of the proteins cited; added tags and fusions are not shown. Residues count along the entry.
UniProt Q05941, 23-502 limits assumed: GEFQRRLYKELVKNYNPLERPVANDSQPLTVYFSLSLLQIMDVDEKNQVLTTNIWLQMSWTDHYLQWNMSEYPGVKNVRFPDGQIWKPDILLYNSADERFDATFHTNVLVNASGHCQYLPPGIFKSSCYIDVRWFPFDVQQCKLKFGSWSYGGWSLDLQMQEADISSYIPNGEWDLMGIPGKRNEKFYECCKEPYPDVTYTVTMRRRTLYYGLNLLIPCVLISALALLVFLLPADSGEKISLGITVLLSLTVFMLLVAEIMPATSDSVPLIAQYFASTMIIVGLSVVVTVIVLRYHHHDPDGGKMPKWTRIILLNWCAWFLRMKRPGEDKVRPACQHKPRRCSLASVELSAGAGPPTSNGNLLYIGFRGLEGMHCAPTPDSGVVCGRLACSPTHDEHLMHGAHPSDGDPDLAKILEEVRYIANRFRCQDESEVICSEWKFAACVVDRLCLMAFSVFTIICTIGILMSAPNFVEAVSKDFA

This test has as its target Neuronal acetylcholine receptor subunit alpha-7 (Rattus norvegicus, UniProt Q05941). Put plainly: Displacement of [125I]alpha-bungarotoxin from alpha7 nicotinic acetylcholine receptor in rat brain membrane.

Each structure is given as a SMILES string.

The compound `O=C(NCC1CCN(Cc2ccccc2)CC1)c1cn(Cc2cccc(Cl)c2)nn1` had a half-maximal inhibitory concentration (IC50) of 11.9 µM.
